In one test the target is recombinant PDE5 (Homo sapiens, UniProt O76074). Conditions: in vitro selectivity assay using recombinant PDE. The text has this: (§1) Rows list the PDE inhibitors. Columns list the recombinant human PDE enzymes.
Another test concerns the target recombinant human PDE11A (Homo sapiens, UniProt Q9HCR9). Conditions: in vitro selectivity assay using recombinant PDE.
Source text: as §1

The chains behind the UniProt entries cited, without tags or fusion partners. Where a name states a change or a piece, a line headed by the entry shows the natural chain unless it says otherwise.
UniProt Q9HCR9: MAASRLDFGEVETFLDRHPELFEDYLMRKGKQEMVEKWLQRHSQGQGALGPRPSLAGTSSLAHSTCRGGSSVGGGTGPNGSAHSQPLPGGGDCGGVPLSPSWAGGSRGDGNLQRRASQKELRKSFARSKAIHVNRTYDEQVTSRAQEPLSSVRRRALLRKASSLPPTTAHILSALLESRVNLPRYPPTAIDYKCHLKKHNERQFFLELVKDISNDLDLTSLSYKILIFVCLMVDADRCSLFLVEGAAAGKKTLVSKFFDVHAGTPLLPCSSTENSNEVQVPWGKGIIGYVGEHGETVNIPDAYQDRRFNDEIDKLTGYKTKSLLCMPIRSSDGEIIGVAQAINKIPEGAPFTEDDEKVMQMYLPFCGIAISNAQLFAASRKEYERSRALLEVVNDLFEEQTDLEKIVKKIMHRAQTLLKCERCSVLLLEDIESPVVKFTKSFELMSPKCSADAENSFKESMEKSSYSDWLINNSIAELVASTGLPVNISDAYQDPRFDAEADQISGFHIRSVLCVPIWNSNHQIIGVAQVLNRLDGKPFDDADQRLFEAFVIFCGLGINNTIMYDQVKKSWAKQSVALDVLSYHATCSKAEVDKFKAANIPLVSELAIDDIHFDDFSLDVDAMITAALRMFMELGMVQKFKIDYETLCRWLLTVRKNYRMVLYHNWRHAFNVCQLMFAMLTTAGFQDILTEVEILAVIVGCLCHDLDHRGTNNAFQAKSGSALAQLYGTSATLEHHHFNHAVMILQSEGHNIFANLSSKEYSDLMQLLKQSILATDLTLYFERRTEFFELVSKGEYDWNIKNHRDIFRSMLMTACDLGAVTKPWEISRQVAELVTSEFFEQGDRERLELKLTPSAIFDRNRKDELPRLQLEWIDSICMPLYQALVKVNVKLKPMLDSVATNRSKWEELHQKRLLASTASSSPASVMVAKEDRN

On to `CN1CC(=O)N2[C@H](c3ccc4c(c3)OCO4)c3[nH]c4ccccc4c3C[C@@H]2C1=O` [Tadalafil, (6R-trans)-6-(1,3-benzodioxol-5-yl)-2,3,6,7,12,12a-hexahydro-2-methyl-pyrazino[1′,2′:1,6]pyrido[3,4-b]indole-1,4-dione], for which the “inhibition of PDE5 (inhibitor class)” value at recombinant PDE5 is given as “potent inhibitors”. Moreover, the “inhibition of PDE11A (inhibitor class)” value on recombinant human PDE11A is “potent inhibitor (the agent exhibits at least 75% inhibition of enzymatic activity in an in vitro selectivity assay using a recombinant PDE)”.

For the origin of these results see patent US20150119399A1, “BETA-CELL REPLICATION PROMOTING COMPOUNDS AND METHODS OF THEIR USE” (President and Fellows of Harvard College, priority 2012, published 2015).
